Source: patent US8906604B2, “Store-operated calcium cellular assay” (National Center for Biological Sciences, priority 2009, dated 2014)

Biological target: T1, Drosophila muscarinic acetylcholine receptor (mAChR) (Drosophila melanogaster, UniProt P16395)
T1 construct: pUASTmAChR construct generated from the Dm mAChR cDNA clone; expressed in transfected cells; host or cells: primary neurons from 3rd instar larval brains of transgenic Drosophila (ElavC155GAL4; UASdmAchR)
T1 sequence (P16395 1-805): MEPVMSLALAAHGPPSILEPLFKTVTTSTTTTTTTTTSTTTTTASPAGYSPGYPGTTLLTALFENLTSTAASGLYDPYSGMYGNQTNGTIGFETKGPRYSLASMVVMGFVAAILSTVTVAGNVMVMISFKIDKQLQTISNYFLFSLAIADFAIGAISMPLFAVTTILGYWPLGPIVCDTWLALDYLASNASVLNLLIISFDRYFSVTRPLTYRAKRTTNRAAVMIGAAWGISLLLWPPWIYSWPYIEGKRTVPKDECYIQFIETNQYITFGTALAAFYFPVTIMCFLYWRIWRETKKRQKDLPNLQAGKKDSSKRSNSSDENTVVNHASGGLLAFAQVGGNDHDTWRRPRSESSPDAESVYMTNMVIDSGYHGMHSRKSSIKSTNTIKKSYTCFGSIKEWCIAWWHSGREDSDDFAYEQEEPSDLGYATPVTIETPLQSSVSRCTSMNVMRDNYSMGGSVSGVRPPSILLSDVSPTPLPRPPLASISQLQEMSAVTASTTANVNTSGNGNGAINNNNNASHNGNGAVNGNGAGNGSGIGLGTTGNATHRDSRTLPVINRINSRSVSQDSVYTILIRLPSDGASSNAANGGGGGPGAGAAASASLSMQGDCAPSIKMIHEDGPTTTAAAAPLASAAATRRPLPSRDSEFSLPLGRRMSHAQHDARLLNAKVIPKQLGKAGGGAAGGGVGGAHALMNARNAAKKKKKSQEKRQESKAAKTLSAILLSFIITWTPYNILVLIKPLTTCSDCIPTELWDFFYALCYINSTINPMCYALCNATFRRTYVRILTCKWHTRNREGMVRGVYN
Experiment: Carbachol-stimulated Ca2+ release through the InsP3R in larval neurons expressing mAChR (Fluo-4 imaging)
Assay type: cell-based
Details: WT InsP3R; primary larval neurons with pan-neuronal mAChR; increasing carbachol concentrations (5, 10, 20 and 40 μM, FIG. 9d)
Experimental: Ca^2+ release through the InsP3R was measured by stimulating neurons ectopically expressing the Drosophila muscarinic acetylcholine receptor (mAChR) with increasing concentrations of the agonist carbachol. See Cordova, D. et al., Invert Neurosci, 5, 19-28 (2003); and Millar, N. S. et al., J Exp Biol, 198, 1843-1850 (1995). Pan-neuronal expression of the Drosophila mAChR had no measurable effect on viability or flight. […] Expression of mAChR transcripts, as determined by semiquantitative RT-PCR was similar in mutant and WT (FIG. 9c).
Larval neuron cultures were washed twice after growth for 14-16 h with Drosophila M1 medium and loaded in the dark with 2.5 μM Fluo-4 AM in M1 medium containing 0.002% Pluronic F-127, for 30 minutes at room temperature. […] For quantitative analysis, a field with several cells was selected and imaged using the epifluorescence optics of a Nikon TE2000 inverted wide field microscope with an oil objective (60× and 1.4 numerical aperture) lens. […] Emitted light was detected through a 505 nm bandpass filter (FITC filter set, 41001-exciter HQ480/40, dichroic Q505LP, emitter HQ535/50; Chroma, Brattleboro, Vt.). […]
Fluorescent images were acquired using the Evolution QExi CCD camera and In vivo imaging software (Media Cybernetics, Silver Spring, Md.). […] A total of 150-200 cells were analyzed from 5-7 dishes imaged for each genotype for each experiment. […]

In the case of `C[N+](C)(C)CCOC(N)=O` [carbachol], the “Ca^2+ release through the InsP3R (ΔF/F)” value is reported as “increased as a function of carbachol concentration”.
